The record followed here is ChEMBL document CHEMBL3085755, “Synthesis of 3-spiromorpholinone androsterone derivatives as inhibitors of 17β-hydroxysteroid dehydrogenase type 3” (Bioorg Med Chem Lett, 2013).

The structures appear in SMILES notation.

For the assay, the target named is T1, 17-beta-hydroxysteroid dehydrogenase type 3 (Rattus norvegicus) (UniProt O54939).
T1 sequence (whole entry): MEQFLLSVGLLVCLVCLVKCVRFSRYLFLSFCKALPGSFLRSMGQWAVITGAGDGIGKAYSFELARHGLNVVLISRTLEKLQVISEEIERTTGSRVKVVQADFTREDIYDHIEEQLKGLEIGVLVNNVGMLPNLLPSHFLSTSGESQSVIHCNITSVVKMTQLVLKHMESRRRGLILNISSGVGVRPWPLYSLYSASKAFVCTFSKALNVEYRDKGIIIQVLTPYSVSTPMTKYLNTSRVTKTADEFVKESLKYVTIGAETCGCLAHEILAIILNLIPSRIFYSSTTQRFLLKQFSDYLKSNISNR
Description: Inhibition of 17beta-HSD3 in rat testes microsomal fraction using [14C]-4-androstene-3,17-dione as substrate assessed as testosterone formation at 1 uM after 2 hrs by thin layer chromatography. It is filed as microsomes. Particulars: Testis. The gist of the method: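 Rat testis microsomes supplying 17β-HSD3, converting [14C]-4-androstene-3,17-dione (50 nM) into testosterone. Inhibition of this transformation is measured at a fixed inhibitor concentration and expressed as mean ± SD of triplicate.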

In the case of `CC1CN(S(=O)(=O)c2ccccc2C(F)(F)F)C(C)CN1C[C@@]1(O)CC[C@@]2(C)[C@@H](CC[C@@H]3[C@@H]2CC[C@]2(C)C(=O)CC[C@@H]32)C1` (stereo partly specified), the inhibition (usually the share of the control response that was lost under treatment) was determined as 92.1%.
